ChEMBL document CHEMBL3808316, “Design, synthesis and biological evaluation of novel tetrahydroisoquinoline quaternary derivatives as peripheral κ-opioid receptor agonists” (Bioorg Med Chem, 2016)

Legend:
Mus musculus [1] = assay: Antinociceptive activity in ip dosed mouse assessed as acetic acid induced writhing administered 30 mins prior to acetic acid challenge measured for 20 mins
Mus musculus [2] = assay: Sedative activity in sc dosed Kunming mouse assessed as […] after 20 mins by rotation test; conditions: in vivo

## CN(C(=O)Cc1ccc(Cl)c(Cl)c1)C1CCCCC1N1CCCC1 (configuration not stated)
Mus musculus [1]
  ED50: 0.885 mg/kg
Mus musculus [2]
  ED50: 3.32 mg/kg
